Values quoted from earlier work, collected in PMC7541340.
pKd: −log10 of the molar value.

Target: C5AR1 N-terminus (Homo sapiens) (UniProt P21730)

## CHIPS (from UniProt Q2FFF7)
  pKd: 8.96
